From ChEMBL document CHEMBL3259780, “3-Substituted-N-(4-hydroxynaphthalen-1-yl)arylsulfonamides as a novel class of selective Mcl-1 inhibitors: structure-based design, synthesis, SAR, and biological evaluation” (J Med Chem, 2014)

What was measured:
Homo sapiens [1] = species on record: Homo sapiens; assay: Selectivity ratio of Ki for His-tagged BCLW (1 to 155) (unknown origin) to Ki for His-tagged MCL1 (171 to 327) (unknown origin)
Homo sapiens [2] = species on record: Homo sapiens; assay: Selectivity ratio of Ki for His-tagged A1-BFL-1 (1 to 151) (unknown origin) to Ki for His-tagged MCL1 (171 to 327) (unknown origin)
Homo sapiens [3] = species on record: Homo sapiens; assay: Selectivity ratio of Ki for His-tagged BCLX-L (1 to 209) (unknown origin) to Ki for His-tagged MCL1 (171 to 327) (unknown origin)

Work on `O=C(O)CSc1cc(NS(=O)(=O)c2ccc(Oc3ccccc3)cc2)c2ccccc2c1O` yielded a Ratio Ki (Homo sapiens [1]) of 9, a Ratio Ki (Homo sapiens [2]) of 19 and a Ratio Ki (Homo sapiens [3]) of 59.
